Source: ChEMBL document CHEMBL1133595, “Discovery of chiral N,N-disubstituted trifluoro-3-amino-2-propanols as potent inhibitors of cholesteryl ester transfer protein” (J Med Chem, 2000)

Target: T1, Cholesteryl ester transfer protein (Homo sapiens, UniProt P11597)
T1 sequence (P11597 whole entry): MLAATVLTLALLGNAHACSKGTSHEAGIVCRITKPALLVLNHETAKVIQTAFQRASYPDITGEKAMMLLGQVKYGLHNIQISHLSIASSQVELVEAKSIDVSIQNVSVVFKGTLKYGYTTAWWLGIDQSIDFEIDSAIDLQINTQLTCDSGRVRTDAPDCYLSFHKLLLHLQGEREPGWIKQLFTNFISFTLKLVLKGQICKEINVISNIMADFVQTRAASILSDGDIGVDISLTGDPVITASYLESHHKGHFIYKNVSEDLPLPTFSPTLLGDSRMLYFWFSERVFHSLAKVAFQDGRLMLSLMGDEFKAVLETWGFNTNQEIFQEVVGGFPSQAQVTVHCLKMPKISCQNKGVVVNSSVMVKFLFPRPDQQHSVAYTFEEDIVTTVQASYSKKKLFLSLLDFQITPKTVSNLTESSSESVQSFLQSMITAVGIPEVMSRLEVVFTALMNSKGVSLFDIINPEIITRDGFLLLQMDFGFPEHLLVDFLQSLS
Assay: Tested for inhibiting CETP-mediated transfer of [3H]-CE from HDL to LDL in vitro under buffered assay conditions in human serum.
Assay type: cell-free

OC(CN(Cc1cccc(OC(F)(F)F)c1)c1cccc(F)c1)C(F)(F)F (stereo unspecified)
IC50: > 200 µM
